From ChEMBL document CHEMBL3525927, “Measurement of unbound drug exposure in brain: modeling of pH partitioning explains diverging results between the brain slice and brain homogenate methods” (Drug Metab Dispos, 2011)

Experiment: physchem

With `COc1ccc2c3c1O[C@H]1C(=O)CC[C@@]4(O)[C@@H](C2)N(C)CC[C@]314` [OXYCODONE] as the compound, how does the pKa read?
The pKa was 9.1.
